The values that follow come from BindingDB's records for doi:10.1016/j.bmcl.2007.04.068 (Wyeth Research, 2007).

For the experiment, the target named is Estrogen receptor alpha (Homo sapiens) (UniProt P03372). In words: Inhibition of human ERalpha.

`Oc1ccc(-c2cc(Br)c3cc(O)ccc3n2)cc1` [4-Bromo-2-(4-hydroxy-phenyl)-quinolin-6-ol]: the IC50 stood at 4.3 nM.
